Reference: ChEMBL document CHEMBL1153096, “Properly substituted 1,4-dioxane nucleus favours the selective M3 muscarinic receptor activation” (Bioorg Med Chem, 2009)

Sequences of proteins named here, by UniProt entry; tags and fusion partners are left off. A change or cut given only in a name is not applied to a line headed by its entry.
UniProt P20309, whole entry: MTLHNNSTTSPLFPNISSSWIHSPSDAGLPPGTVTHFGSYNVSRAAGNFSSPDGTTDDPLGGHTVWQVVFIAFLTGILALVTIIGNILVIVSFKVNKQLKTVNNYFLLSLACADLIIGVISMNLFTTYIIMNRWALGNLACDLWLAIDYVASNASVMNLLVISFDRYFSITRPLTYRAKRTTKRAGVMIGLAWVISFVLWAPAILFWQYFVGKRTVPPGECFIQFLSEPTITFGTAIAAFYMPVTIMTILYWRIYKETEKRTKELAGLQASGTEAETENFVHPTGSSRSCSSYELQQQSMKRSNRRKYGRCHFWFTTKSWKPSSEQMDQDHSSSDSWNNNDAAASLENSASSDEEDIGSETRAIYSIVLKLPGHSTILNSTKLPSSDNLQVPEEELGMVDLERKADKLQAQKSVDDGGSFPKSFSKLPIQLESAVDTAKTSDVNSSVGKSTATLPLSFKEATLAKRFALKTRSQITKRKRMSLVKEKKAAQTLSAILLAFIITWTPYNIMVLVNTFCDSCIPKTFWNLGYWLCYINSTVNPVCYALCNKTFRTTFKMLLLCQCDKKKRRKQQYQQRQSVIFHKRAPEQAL
UniProt P11229: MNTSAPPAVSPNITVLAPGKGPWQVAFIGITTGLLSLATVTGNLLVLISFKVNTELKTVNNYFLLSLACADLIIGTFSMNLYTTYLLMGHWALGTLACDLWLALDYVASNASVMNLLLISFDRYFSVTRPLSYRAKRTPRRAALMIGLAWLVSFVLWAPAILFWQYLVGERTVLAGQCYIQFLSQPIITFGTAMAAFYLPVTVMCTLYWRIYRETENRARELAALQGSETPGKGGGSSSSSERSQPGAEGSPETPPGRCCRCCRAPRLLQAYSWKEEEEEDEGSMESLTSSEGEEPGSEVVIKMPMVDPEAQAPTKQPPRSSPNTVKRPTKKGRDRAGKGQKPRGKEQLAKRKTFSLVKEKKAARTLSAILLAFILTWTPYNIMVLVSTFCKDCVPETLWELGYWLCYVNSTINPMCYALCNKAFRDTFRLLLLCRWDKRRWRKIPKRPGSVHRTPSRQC

How the values were obtained:
[1] = biological target: Muscarinic acetylcholine receptor M3 (Homo sapiens, UniProt P20309); assay: Displacement of [3H]NMS from human muscarinic M3 receptor expressed in CHO cells by microplate scintillation counting; type: cell-based
[2] = biological target: Muscarinic acetylcholine receptor M1 (Homo sapiens, UniProt P11229); assay: Displacement of [3H]NMS from human muscarinic M1 receptor expressed in CHO cells by microplate scintillation counting; type: cell-based

SMILES	Ki [1] [µM]	Ki [2] [µM]
C[C@@H]1COC[C@@H](C[N+](C)(C)C)O1.[I-]	35.5	> 100
C[C@H]1COC[C@@H](C[N+](C)(C)C)O1.[I-] (relative stereo)	7.59	30.2
